The values below come from patent publication US20110033461A1, “Combination Therapy for the Treatment of Cancer” (priority 2008, published 2011).

The assay relates to HCT116 cells. The assay is described as follows: viability-based synergy experiment, C1368 and cetuximab, HCT116 cells. In kind it is cell-based, human. An excerpt:
In accordance with the present invention, we have determined that the combination of chemical inhibition of Aurora kinases with inhibition of EGFR results in the synergistic inhibition of cancer cell growth. In a preferred embodiment, the Aurora kinase inhibitor is selected from the group consisting of siRNA which down modulate expression of Aurora kinase, bioavailable small molecule inhibitors of Aurora kinases (both A and B), e.g., VX-680 (also known as MK0457; Vertex) PHA-680632 and PHA-739758 (Nerviano), AKI-001 (Genentech), MLN8054, MLN8237 (Millenium Pharmaceuticals), C1368 (Sigma) and the EGFR inhibitor is selected from the group consisting of erlotinib, cetuximab, gefitinib, and panitumumab. In vitro, viability-based synergy experiments detected a strong synergy between the two inhibitor agents.
To assess the applicability of our discovery to other FDA approved EGFR inhibitors, we tested the ability of EGFR-targeting antibody, cetuximab, to synergize with Sigma C1368 (FIG. 6). Cetuximab has a completely different mechanism of EGFR inhibition than erlotinib. Cetuximab binds to the cell surface domains of EGFR and causes EGFR internalization and inhibition of ligand mediated signaling. […] Strikingly, cetuximab synergistically killed HCT116 cells when given in combination (1:109 ratio) (1:8.5 ratio in μm) with C1368 (FIGS. 6C and 6D, FIG. 7 and Table 2). […]

A word on the IC50: it is the point on the concentration scale where inhibition reaches its midpoint. With cetuximab, the “inhibition of HCT116 cells, drug alone” value (cetuximab alone) was “did not cause any significant inhibition”. In addition, the IC50 (cetuximab with C1368, 1:109 ratio, read-out: IC50 value in combination) amounted to 100 nM.
